# Screening data: PubChem BioAssay, National Center for Advancing Translational Sciences (NCATS)
# uPA surface inh – cell surface uPA generation inhibition; Potency, µM (doses to about 38.3 µM), for inactives: top-dose activity change, negative = inhibition, most hits filed as inhibitors; cell surface uPA generation assay, qHTS; 330,000 compounds, 0.31% hits; active = well fitted inhibition curve with a large enough effect; inconclusive = small, poorly fitted or top-dose-only effect; inactive = no such curve, though single readings can be large or run the other way; tested in mouse RAW 264.7 cells; also: potency is read from the fitted curve at half-maximal effect; % is scaled to controls: 0 for no effect and ±100 for the full control effect; nearly all actives have a fitted effect of over 55% in size
# TDP1 cell noCPT – qHTS for Inhibitors of human tyrosyl-DNA phosphodiesterase 1 (TDP1): qHTS in cells in absence of CPT | 420,000 compounds, 15% hits | DT40 Tdp1-/- hTDP1 cells, no CPT, ATP luminescence, 48 h | Potency, µM (top dose mostly 46.2 µM), for the others: at the highest dose activity change, negative = growth inhibition, usual class: inhibitors; also: potency is read from the fitted curve at half-maximal effect; % is scaled to controls: 0 for no effect and ±100 for the full control effect; nearly all actives have a fitted effect of over 55% in size
#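 A cellular qHTS used chicken DT40 cells lacking endogenous Tdp1 but carrying stably transfected human TDP1. Compounds were applied without camptothecin, and cell growth kinetics were judged by ATP-dependent luminescence after ≥48 hr.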
# TDP1 cell CPT – growth inhibition of DT40 Tdp1-/-;hTDP1 cells with camptothecin (screen for TDP1 inhibitors); chicken DT40 Tdp1-/-;hTDP1 cells + 20 nM CPT, ATP luminescence, 48 h; Potency, µM (titrated, usually from 46.2 µM), without a hit: top-dose activity change, negative = growth inhibition, usual class: inhibitors; 420,000 compounds, 12% hits; also: potency is read from the fitted curve at half-maximal effect; % is scaled to controls: 0 for no effect and ±100 for the full control effect; nearly all actives have a fitted effect of over 55% in size
#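 Cell growth measured by CellTiter-Glo luminescence after a minimum 48 h, 37 C compound exposure with 20 nM CPT in Tdp1-knockout DT40 cells stably expressing hTDP1, seeded 400/well; qHTS titration format.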
# TDP1 block – TDP1 (human) enzyme inhibition. Q9NUW8. Potency, µM (series often up to 130 µM), for the others: top-dose activity change, negative = inhibition, most hits filed as inhibitors. recombinant TDP1, AlphaScreen DNA substrate cleavage. 350,000 compounds, 0.28% hits; also: potency is read from the fitted curve at half-maximal effect; % is scaled to controls: 0 for no effect and ±100 for the full control effect; nearly all actives have a fitted effect of over 40% in size
#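 Recombinant human Tdp1 (E. coli-expressed, 1 nM final) preincubated with compounds 15 min at room temperature, then 5'-biotin/3'-phosphotyrosine-FITC DNA substrate (15 nM final) added for 5 min. AlphaScreen beads (10 ug/ml final) added 10 min; cleavage lowers signal.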
# miR-21 reporter – miR-21 reporter, rising signal; HeLa miR-21 FLuc reporter, luciferase, 48 h; Potency, µM (top dose mostly 38.3 µM), without a hit: at the top dose reporter change, positive = more light; 340,000 tested, under 10 active; active = well fitted rising curve with a large enough effect; inconclusive = small, poorly fitted or top-dose-only effect; inactive = no such curve, though single readings can be large or run the other way;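 note: % of control where 0% means no effect; miR-21 action dims this reporter so a rising signal means less miR-21 action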
#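 HeLa cells stably expressing CMV-driven firefly luciferase with a downstream miR-21 binding sequence, endogenously expressing miR-21, were treated with titrations (up to about 40uM final) for 48 hours at 37 degree Celsius. Luciferase luminescence was read after lysis.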
# Numbers without * were called inactive; ? = inconclusive; nt = not tested or not shown. Sampled rows, rich in hits. Any-hit rate of the full collection: about 16%. Unless noted, calls follow the shape of the dose curve; as a rule, active = well fitted curve in the direction sought with a large enough effect; inconclusive = small, poorly fitted or top-dose-only effect, or another doubt; inactive = no such curve, though single readings can be large; an effect the other way counts as inactive or inconclusive.
no.	Molecule	uPA surface inh	TDP1 cell noCPT	TDP1 cell CPT
1	Cc1ccc(-n2ncc(C(=O)NCCc3c[nH]c4ccccc34)c2C2CCN(C(=O)OC(C)(C)C)CC2)cc1C	nt	?	16µM*
2	CCCNC(=O)c1cnn(-c2ccc(C)c(C)c2)c1C1CCN(C(=O)OC(C)(C)C)CC1	nt	23µM*	?
3	Cc1ccc(-n2ncc(C(=O)Nc3ccc4c(c3)OCCO4)c2C2CCN(C(=O)OC(C)(C)C)CC2)cc1C	nt	?	?
4	Cc1ccc(-n2ncc(C(=O)N3CCCCC3)c2C2CCN(C(=O)OC(C)(C)C)CC2)cc1C	nt	?	?
5	Cc1ccc(-n2ncc(C(=O)NCCc3ccsc3)c2C2CCN(C(=O)OC(C)(C)C)CC2)cc1C	nt	16µM*	16µM*
6	N#Cc1ccc(CSC2=NCCN2)cc1	-17%	23µM*	21µM*
7	CCOc1ccc(CSC2=NCCN2)cc1Cl	-11%	15µM*	?
8	C=COCCNC(=O)Nc1ccc(Cl)cc1Cl	2%	-16%	-6%
9	O=C(O)CCn1c(=O)oc2cc(S(=O)(=O)N3CCCC3)ccc21	-3%	-7%	25%
10	Cc1cccc(Oc2ccc(NC(=O)C3CC=CCC3C(=O)O)cc2)c1 (stereo unspecified)	-14%	2.1µM*	-29%

no.	TDP1 block	miR-21 reporter
1	8%	?
2	5%	9%
3	-7%	-36%
4	-5%	-1%
5	4%	?
6	5%	23%
7	0%	-5%
8	9%	-3%
9	-3%	nt
10	nt	-14%

# New compounds follow.
no.	Molecule	uPA surface inh	TDP1 cell noCPT	TDP1 cell CPT
11	COc1cccc(NC(=O)c2ccc(NC(=O)C3CC(=O)OC34CCCCC4)cc2)c1 (stereo unspecified)	0%	?	18µM*
12	O=C(Nc1cccc(S(=O)(=O)c2cccc(NC(=O)C3CC3)c2)c1)C1CC1	-18%	21µM*	21µM*
13	N#Cc1ccc(Oc2ccc(NC(=O)C3CC=CCC3C(=O)O)cc2)cc1 (stereo unspecified)	6%	?	-25%
14	COC(=O)[C@H](C)NC(=O)Nc1ccc(Oc2ccccc2)cc1	4%	6.3µM*	?
15	CS(=O)(=O)c1cccc(NC(=O)C2CC2)c1	-3%	0%	-11%
16	CC#CCCc1nc2ccccc2c(=O)n1N	-1%	-7%	-20%
17	Cc1ccc(S(=O)(=O)CCN2CCN(c3ccccc3)CC2)cc1	-2%	-8%	-13%
18	Nc1cc(=O)[nH]c(SCC(=O)Nc2cccc(S(=O)(=O)N3CCCCC3)c2)n1	0%	-2%	2%
19	CC(OC(=O)c1ccc(O)cc1)C(=O)Nc1ccc(Oc2ccccc2)cc1 (stereo unspecified)	2%	21µM*	?
20	COc1cccc(NC(=O)C2CCCC2)c1	3%	-17%	-4%

no.	TDP1 block	miR-21 reporter
11	5%	2%
12	-3%	14%
13	-4%	2%
14	5%	-6%
15	-1%	-1%
16	-1%	-7%
17	-12%	-1%
18	2%	nt
19	1%	nt
20	-4%	nt

# Complete entries as entered above. Order of screens: uPA surface inh, TDP1 cell noCPT, TDP1 cell CPT, TDP1 block, miR-21 reporter
# Shown for `COc1cccc(NC(=O)c2ccc(NC(=O)C3CC(=O)OC34CCCCC4)cc2)c1` (stereo unspecified) : 0%, ?, 18µM*, 5%, 2%
# Shown for `Nc1cc(=O)[nH]c(SCC(=O)Nc2cccc(S(=O)(=O)N3CCCCC3)c2)n1` : 0%, -2%, 2%, 2%, nt
# Shown for `CS(=O)(=O)c1cccc(NC(=O)C2CC2)c1` : -3%, 0%, -11%, -1%, -1%
# Shown for `O=C(Nc1cccc(S(=O)(=O)c2cccc(NC(=O)C3CC3)c2)c1)C1CC1` : -18%, 21µM*, 21µM*, -3%, 14%

# Following part
no.	Molecule	uPA surface inh	TDP1 cell noCPT	TDP1 cell CPT
21	CC(C)Oc1cccc(NC(=O)C2CCN(S(=O)(=O)Cc3ccccc3)CC2)c1	nt	?	13µM*
22	O=C(Nc1ccc(Oc2ccccc2)cc1)C1CC1	-4%	18µM*	21µM*
23	COc1cccc(NC(=O)C2CC2)c1	14%	-4%	5.8µM*
24	O=C(Nc1ccc(Oc2ccccc2)cc1)C1CCN(c2ncccn2)CC1	4%	-3%	-1%
25	COc1ccc(CCn2nnnc2C(c2ccc(C)cc2)N2CCN(C)CC2)cc1OC (stereo unspecified)	3%	-10%	2%
26	CN(CCc1ccccc1)C(=O)c1ccc(NC(=O)Cc2ccc(NC(=O)C3CCN(C(=O)C4CC4)CC3)cc2)cc1	12%	?	23µM*
27	CN(C(=O)c1ccc(NC(=O)Cc2ccc(NC(=O)C3CCN(C(=O)C4CCCCC4)CC3)cc2)cc1)C1CCCC1	12%	21µM*	?
28	CN(C(=O)c1ccc(NC(=O)Cc2ccc(NC(=O)C3CCN(C(=O)C4CCC4)CC3)cc2)cc1)C1CC1	-2%	-14%	-13%
29	CN(CCc1ccccc1)C(=O)c1ccc(NC(=O)Cc2ccc(NC(=O)C3CCN(C(=O)c4ccccc4)CC3)cc2)cc1	14%	?	?
30	CN(CCc1ccccc1)C(=O)c1ccc(NC(=O)Cc2ccc(NC(=O)C3CCN(C(=O)C4CCCC4)CC3)cc2)cc1	-7%	23µM*	16µM*

no.	TDP1 block	miR-21 reporter
21	6%	-1%
22	-14%	-26%
23	-2%	nt
24	2%	-5%
25	2%	0%
26	nt	nt
27	nt	nt
28	11%	nt
29	nt	nt
30	nt	nt

# (listing goes on)
no.	Molecule	uPA surface inh	TDP1 cell noCPT	TDP1 cell CPT
31	O=C(CSc1nccn1-c1cccc(Cl)c1)Nc1cccc2ccccc12	nt	?	?
32	CC1(C)C(=O)OC(c2ccccc2)C(C)(C)C1=O (stereo unspecified)	5%	-14%	4%
33	CCC1=C(OC(=O)c2ccccc2)C(C)(C)C(c2ccccc2)OC1=O (stereo unspecified)	6%	23µM*	?
34	NC(=O)c1nsc(C(=O)N(c2ccc3c(c2)OCCO3)C(C(=O)NCC2CCCO2)c2ccc(F)cc2)c1N (stereo unspecified)	0%	18µM*	15µM*
35	COc1ccc(CCN(C(=O)c2snc(C(N)=O)c2N)C(C(=O)NCC2CCCO2)c2ccc(F)cc2)cc1OC (stereo unspecified)	11%	29µM*	?
36	Cc1ccc(C(C(=O)NCC2CCCO2)N(C(=O)c2snc(C(N)=O)c2N)c2ccc3c(c2)OCCO3)cc1 (stereo unspecified)	3%	-86%	23µM*
37	COc1ccc(N2CCN(C3CCCN(Cc4ccccc4OCCO)C3)CC2)cc1 (stereo unspecified)	0%	5%	?
38	c1ccc2c(c1)NC(CN1CCOCC1)CO2 (stereo unspecified)	1%	-13%	-9%
39	Cc1ccc(C(O)(COC(=O)C(C)C)COC(=O)C(C)C)c(O)c1	?	3.7µM*	4.6µM*
40	COc1ccc(OC)c(C(=O)CSc2nnc(-c3ccc(OC)c(OC)c3)o2)c1	nt	nt	nt

no.	TDP1 block	miR-21 reporter
31	7%	3%
32	nt	4%
33	0%	-5%
34	8%	-14%
35	11%	1%
36	11%	2%
37	nt	2%
38	5%	-6%
39	-14%	0%
40	5%	-6%

# (list continues)
no.	Molecule	uPA surface inh	TDP1 cell noCPT	TDP1 cell CPT
41	Cc1ccc(S(=O)(=O)N2CCN(CC(=O)Nc3ccc([N+](=O)[O-])cc3)CC2)cc1C	5%	16µM*	?
42	COc1cccc(N2CCN(S(=O)(=O)c3ccc(-c4coc(C)n4)cc3)CC2)c1	-5%	21µM*	?
43	NS(=O)(=O)c1ccc(NC(=O)CN2CCN(S(=O)(=O)c3ccc(F)cc3)CC2)cc1	-9%	21µM*	21µM*
44	Cc1cc(C)c(C)c(S(=O)(=O)N2CCN(CC(=O)Nc3ccc([N+](=O)[O-])cc3)CC2)c1C	-4%	-24%	-5%

no.	TDP1 block	miR-21 reporter
41	6%	-5%
42	4%	2%
43	4%	7%
44	6%	-6%
